Results as given in paper PMC5908791 (Nature Communications, 2018).

The chains behind the UniProt entries cited, without tags or fusion partners. Residues count along the entry.
UniProt O15524, 53-211, chain 1 of 3: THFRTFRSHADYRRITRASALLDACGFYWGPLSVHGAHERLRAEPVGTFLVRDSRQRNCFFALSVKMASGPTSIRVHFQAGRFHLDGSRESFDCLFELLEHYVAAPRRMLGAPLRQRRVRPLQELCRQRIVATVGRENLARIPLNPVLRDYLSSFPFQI

B1: JAK3 activation loop phosphopeptide (peptide)
chain: LLPLDKDYYVVREPGQ
modifications: doubly-phosphorylated (phosphotyrosines)
B2: TYK2 activation loop phosphopeptide (peptide)
chain: VPEGHEYYRVREDGD
modifications: doubly-phosphorylated (phosphotyrosines)
B3: JAK2 activation loop phosphopeptide (peptide)
chain: VLPQDKEYYKVKEPGE
modifications: doubly-phosphorylated (phosphotyrosines)

Biological target: T1, human SOCS1 (residues 53-211) in complex with Elongins B and C (human, UniProt O15524 53-211; Q15370 1-118; Q15369 17-112)
T1 construct: SOCS1, human, residues 53-211; phenylphosphate removed by buffer exchange before assays; also called SOCS1/BC; SOCS1/ElonginBC; source: E. coli BL21(DE3), the three chains co-expressed, purified (GSH-agarose, TEV cleavage, Superdex 200); not shown: GST, N-terminal, cleaved; copies: + +
Assay: ITC; 10-40 μM SOCS1/ElonginBC in the cell, 80-400 μM phosphopeptide injected; 25 °C; 20 mM Tris-HCl pH 7.5, 150 mM NaCl, 2 mM β-mercaptoethanol
Conditions: both partners purified

Row | Binder | Kd
1 | B1 | < 1000 nM
2 | B2 | < 1000 nM
3 | B3 | < 1000 nM
